# Paper PMC3661926 (Acta Neuropathologica, 2013)
# System: (Thy1)-h[A30P]α-syn mice
# Assay: Transgenic α-synuclein mouse model
# Settings: 69-week-old mice
smiles,measurement,value
"Brc1cccc(-c2cc(-c3ccc4c(c3)OCO4)n[nH]2)c1 [anle138b, 3-(1,3-benzodioxol-5-yl)-5-(3-bromophenyl)-1H-pyrazole]",pathological α-syn oligomers (sucrose-gradient),strong reduction of pathological α-syn oligomers
